Measured values reported in US12414974B2, “Materials and methods for treating cancer” (priority 2017, dated 2025).

What was measured:
[1] = test system: GBM12 cells; assay: MV anti-tumor effect in vitro (MTT cell viability); format: cell-based, human; conditions: GBM12, 50 U/ml for 18-24 hours prior to MV-NIS (MOI 1)
Method: (§1) MV anti-tumor effect in vitro. GBM cells were inoculated at a multiplicity of infection (MOI) of 0.1 and 1.0 with MV strains diluted in Opti-MEM (Life Technologies). MTT proliferation assay (ATCC, Rockville, MD) was used to determine the cell viability at 24 hours to 10 days post MV inoculation. Samples were run 6-8 wells in 96-well plates and cells inoculated with inactivated MV were used as control.

[2] = test system: GBM64 cells; assay: MV anti-tumor effect in vitro (MTT cell viability); format: cell-based, human; conditions: GBM64, 50 U/ml for 18-24 hours prior to MV-NIS (MOI 1)
Method: as §1

B1: IFN-β: recombinant human IFN-β used to pre-treat MV permissive cells (protein, UniProt P01574 22-187, looked up)
Interferon beta: MSYNLLGFLQRSSNFQCQKLLWQLNGRLEYCLKDRMNFDIPEEIKQLQQFQKEDAALTIYEMLQNIFAIFRQDSSSTGWNETIVENLLANVYHQINHLKTVLEEKLEKEDFTRGKLMSSLHLKRYYGRILHYLKAKEYSHCAWTIVRVEILRNFYFINRLTGYLRN
effect on MV cell killing (MTT) [1]: decreased the cell killing ability of MV | effect on MV cell killing (MTT) [2]: decreased the cell killing ability of MV
